Assay results from BindingDB's records for doi:10.1021/acs.jmedchem.0c00807 (University of Oxford, 2020).

Experiment: Modulation of human utrophinA expressed in mouse H2K cells assessed as upregulation of utrophin production after 24 hrs by luciferase reporter gene assay

CCP(=O)(OC)c1ccc2oc(-c3ccc(F)cc3)nc2c1 (stereo unspecified)
EC50: 711 nM
